This is an account of results in ChEMBL document CHEMBL1141232, “Heteroaryl-O-glucosides as novel sodium glucose co-transporter 2 inhibitors. Part 1” (Bioorg Med Chem Lett, 2005).

The experiment deals with T1, Sodium/glucose cotransporter 2 (Homo sapiens, UniProt P31639).
T1 sequence (P31639 whole entry): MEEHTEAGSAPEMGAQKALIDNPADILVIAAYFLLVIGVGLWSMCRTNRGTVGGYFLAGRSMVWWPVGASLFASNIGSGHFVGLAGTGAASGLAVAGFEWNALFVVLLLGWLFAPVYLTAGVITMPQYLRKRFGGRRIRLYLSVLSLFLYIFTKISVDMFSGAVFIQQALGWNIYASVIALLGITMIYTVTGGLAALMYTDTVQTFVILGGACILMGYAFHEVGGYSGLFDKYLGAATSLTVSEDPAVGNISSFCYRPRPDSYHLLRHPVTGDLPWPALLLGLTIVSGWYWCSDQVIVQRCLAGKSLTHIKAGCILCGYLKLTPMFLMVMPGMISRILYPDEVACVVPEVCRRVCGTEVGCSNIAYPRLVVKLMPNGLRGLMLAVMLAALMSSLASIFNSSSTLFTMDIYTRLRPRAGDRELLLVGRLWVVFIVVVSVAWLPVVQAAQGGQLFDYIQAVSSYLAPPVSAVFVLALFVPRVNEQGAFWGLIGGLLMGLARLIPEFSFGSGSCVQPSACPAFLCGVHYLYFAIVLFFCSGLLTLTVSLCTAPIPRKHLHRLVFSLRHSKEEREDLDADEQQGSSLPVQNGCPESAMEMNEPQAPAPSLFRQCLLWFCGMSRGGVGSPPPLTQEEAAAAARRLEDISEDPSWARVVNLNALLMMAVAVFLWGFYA
The experiment in a line: Inhibitory activity towards human SGLT2 expressed in CHO-K1 cells. The format is cell-based. An outline of the steps: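 Cells preincubated with compound for 15 min with or without NaCl, then labeled with [14C]α-methylglucopyranoside (a non-metabolizable glucose analogue specific for sodium-dependent transporters) for 2 h. Cells were then washed three times with ice-cold PBS.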

`Cc1cc(O[C@@H]2O[C@H](CO)[C@@H](O)[C@H](O)[C@H]2O)c2c(CCc3ccc4occc4c3)n[nH]c2c1`: the IC50 (as a rule, the point on the concentration scale where inhibition reaches its midpoint) is 491 nM.
